In the assay the test system is NIH-3T3 cells expressing L858R EGFR. In words: Soft agar colony formation. It is filed as cell-based.

With “N-(2 ? chloro-6-methylphenyl)-2-[[6-[4-(2-hydroxyethyl)-1-piperazinyl]-2-methyl-4 ? pyrimidinyl]amino]-5-thiazolecarboxamide, monohydrate [Dasatinib]”, the “Colony formation in soft agar” value is “inhibited the colony formation”.

(Values after patent US10385403B2, “DDR2 mutations in squamous cell lung cancer” (The Broad Institute, Inc., priority 2012, dated 2019).)
